# According to publication PMC2690642 (Journal of neurochemistry, 2008):
# Amino acid sequences for entries named in this document (tags omitted). Residues count along the entry.
# UniProt Q00960, 27-390: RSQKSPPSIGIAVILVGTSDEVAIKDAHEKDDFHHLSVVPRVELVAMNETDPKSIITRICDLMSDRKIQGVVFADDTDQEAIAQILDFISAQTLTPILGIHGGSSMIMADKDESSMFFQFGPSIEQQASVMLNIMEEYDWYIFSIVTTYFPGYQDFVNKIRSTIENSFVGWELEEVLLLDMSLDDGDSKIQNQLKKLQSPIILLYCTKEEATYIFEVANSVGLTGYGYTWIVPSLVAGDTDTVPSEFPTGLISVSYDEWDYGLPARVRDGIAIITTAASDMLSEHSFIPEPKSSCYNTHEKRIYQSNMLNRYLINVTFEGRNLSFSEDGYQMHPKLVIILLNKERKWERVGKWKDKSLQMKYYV
# Biological target: NR2B-R (regulatory domain of NMDA receptor NR2B subunit) (Rattus norvegicus, UniProt Q00960)
# Assay: [14C]spermine filter binding to purified NR2B-R
# Settings: 40 µM [14C]spermine; % of binding with no addition
smiles,measurement,value
"NCC(=O)O [Glycine, glycine]","[14C]Spermine bound to NR2B-R in presence of addition, %",101%
